# Cyclic peptide permeability, from CycPeptMPDB

Data: CycPeptMPDB; original report Townsend et al. 2020, doi:10.26434/chemrxiv.13335941.v1.

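The data file gives no further conditions (lipid, pH, time, direction or concentration), and values from different papers need not be comparable. The list need not hold all peptides of the study. Entries at the database's floor value (log10 P of -10) are not listed.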

PAMPA measures passive passage through an artificial lipid membrane.
Permeability is in 10^-6 cm/s, converted from the database's log10 values; higher is more permeable.

| structure (SMILES) | PAMPA (10^-6 cm/s) |
|---|---|
| CC(C)C[C@@H]1C(=O)N2CCC[C@H]2C(=O)N(C)[C@H](CC(C)C)C(=O)N[C@@H](Cc2ccccc2)C(=O)N2CCC[C@@H]2C(=O)N[C@@H](Cc2ccccc2)CC(=O)N(Cc2ccccc2)CC(=O)N1C | 2.6 |
| CC(C)C[C@@H]1C(=O)N(C)[C@H](CC(C)C)C(=O)N2CCC[C@H]2C(=O)N[C@H](CC(C)C)C(=O)N[C@@H](Cc2ccccc2)C(=O)N2CCC[C@H]2C(=O)N[C@@H](Cc2ccccc2)CC(=O)N1C | 4.9 |
| CC(C)C[C@H]1NC(=O)[C@@H]2CCCN2C(=O)CN(Cc2ccccc2)C(=O)CN(Cc2ccccc2)C(=O)[C@@H](C)NC(=O)[C@@H]2CCCN2C(=O)[C@H](Cc2ccccc2)NC1=O | 0.69 |
| CCCN1CC(=O)N(Cc2ccccc2)CC(=O)N(Cc2ccccc2)CC(=O)N2CCC[C@H]2C(=O)N[C@@H](CC(C)C)C(=O)N[C@@H](Cc2ccccc2)C(=O)N2CCC[C@@H]2C1=O | 0.46 |
| CC(C)C[C@@H]1C(=O)N[C@H](CC(C)C)C(=O)N2CCC[C@@H]2C(=O)N(Cc2ccccc2)CC(=O)N[C@@H](Cc2ccccc2)C(=O)N2CCC[C@@H]2C(=O)N[C@@H](Cc2ccccc2)CC(=O)N1C | 1.2 |
| CC(C)C[C@@H]1C(=O)N2CCC[C@@H]2C(=O)N(C)[C@H](CC(C)C)C(=O)N[C@@H](Cc2ccccc2)C(=O)N[C@@H](Cc2ccccc2)CC(=O)N(Cc2ccccc2)CC(=O)N1C | 5.5 |
| CC(C)C[C@H]1NC(=O)[C@H]2CCCN2C(=O)CN(Cc2ccccc2)C(=O)CN(Cc2ccccc2)C(=O)[C@@H](C)NC(=O)[C@H]2CCCN2C(=O)[C@H](Cc2ccccc2)NC1=O | 0.48 |
| CC(C)C[C@H]1C(=O)N2CCC[C@@H]2C(=O)N(Cc2ccccc2)CC(=O)N[C@@H](Cc2ccccc2)C(=O)N2CCC[C@@H]2C(=O)N[C@@H](C)C(=O)N(Cc2ccccc2)CC(=O)N1C | 1.1 |
| CC(C)C[C@H]1NC(=O)CN(Cc2ccccc2)C(=O)[C@H](C)NC(=O)[C@@H]2CCCN2C(=O)[C@H](Cc2ccccc2)NC(=O)[C@H](CC(C)C)N(C)C(=O)[C@@H]2CCCN2C1=O | 0.54 |
| CC(C)C[C@H]1NC(=O)[C@H]2CCCN2C(=O)C[C@H](Cc2ccccc2)NC(=O)CN(Cc2ccccc2)C(=O)[C@@H](C)N(C)C(=O)[C@H](Cc2ccccc2)NC1=O | 1 |
| C[C@@H]1C(=O)N(Cc2ccccc2)CC(=O)N[C@@H](Cc2ccccc2)CC(=O)N2CCC[C@@H]2C(=O)N(Cc2ccccc2)CC(=O)N[C@@H](Cc2ccccc2)C(=O)N2CCC[C@H]2C(=O)N1C | 0.19 |
| CC(C)C[C@H]1NC(=O)[C@H]2CCCN2C(=O)CN(Cc2ccccc2)C(=O)CN(Cc2ccccc2)C(=O)C[C@H](Cc2ccccc2)NC(=O)[C@@H]2CCCN2C(=O)[C@H](Cc2ccccc2)NC1=O | 0.44 |
| CC(C)C[C@H]1NC(=O)[C@@H]2CCCN2C(=O)C[C@H](Cc2ccccc2)NC(=O)CN(Cc2ccccc2)C(=O)[C@H](C)N(C)C(=O)[C@H](Cc2ccccc2)NC1=O | 0.85 |